Experiments:
[1] = target: Kappa-type opioid receptor (Mus musculus, UniProt P33534); assay: Inhibitory activity against Opioid receptor kappa 1 in electrically stimulated mouse vas deferens (MVD) preparation.
[2] = target: Kappa-type opioid receptor (Cavia porcellus, UniProt P41144); assay: Inhibitory activity against Opioid receptor kappa 1 in electrically stimulated guinea pig longitudinal ileal muscle (GPI) preparation.

Protein sequences, listed by entry. Tags and fused reporters are not part of them. Lines headed by an entry give the natural chain unless they say otherwise; changes in a name come on top.
UniProt P33534: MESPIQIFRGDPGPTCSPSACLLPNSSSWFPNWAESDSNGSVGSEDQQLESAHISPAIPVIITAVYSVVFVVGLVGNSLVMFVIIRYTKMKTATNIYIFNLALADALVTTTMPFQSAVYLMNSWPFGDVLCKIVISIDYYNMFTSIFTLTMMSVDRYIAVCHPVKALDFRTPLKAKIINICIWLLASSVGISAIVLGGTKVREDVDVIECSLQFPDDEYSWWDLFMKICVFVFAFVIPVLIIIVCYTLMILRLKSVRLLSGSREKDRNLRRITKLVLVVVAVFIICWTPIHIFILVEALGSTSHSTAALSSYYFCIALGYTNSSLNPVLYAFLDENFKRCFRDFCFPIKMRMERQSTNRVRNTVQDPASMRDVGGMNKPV
UniProt P41144: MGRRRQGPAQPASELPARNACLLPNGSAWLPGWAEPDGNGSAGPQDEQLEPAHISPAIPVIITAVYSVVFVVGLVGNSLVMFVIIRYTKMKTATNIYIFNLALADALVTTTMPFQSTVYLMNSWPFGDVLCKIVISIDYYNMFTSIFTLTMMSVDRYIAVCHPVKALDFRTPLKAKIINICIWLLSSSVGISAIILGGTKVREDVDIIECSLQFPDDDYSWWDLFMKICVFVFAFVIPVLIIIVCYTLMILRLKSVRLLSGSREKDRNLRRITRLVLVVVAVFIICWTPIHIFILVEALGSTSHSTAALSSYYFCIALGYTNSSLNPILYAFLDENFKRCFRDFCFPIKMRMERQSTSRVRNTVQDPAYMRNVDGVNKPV

Row | SMILES | IC50 [1] [pM] | IC50 [2] [pM]
1 | CN(C(=O)Cc1ccc(Cl)c(Cl)c1)[C@H](CN1CCCC1)c1ccccc1 | 2500 | 270
2 | CN(C(=O)Cc1ccc(Cl)c(Cl)c1)[C@H](CN1CCCC1)c1cccc(N)c1 | 120 | 170
3 | CN(C(=O)Cc1ccc(Cl)c(Cl)c1)C(CN1CCCC1)c1ccc(N)cc1 (stereo unspecified) | 4500 | 650

Reference: ChEMBL document CHEMBL1129555, “Arylacetamide-derived fluorescent probes: synthesis, biological evaluation, and direct fluorescent labeling of kappa opioid receptors in mouse microglial cells” (J Med Chem, 1996)
